Assay results published in patent US20140106440A1, “ENHANCED ENZYMATIC CO2 CAPTURE TECHNIQUES ACCORDING TO SOLUTION PKA, TEMPERATURE AND/OR ENZYME CHARACTER” (CO2 SOLUTIONS INC., priority 2011, published 2014).

Tested on: thermostable variant of hCA II ('5X' mutant, M5X)
Assay: CO2 absorption rate in stirred cell, alkanolamine solution with 5X CA (M5X) enzyme

## dimethylethanolamine
Least squares method
  k3*: 0.058 m^6 · mol^−1 · kg^−1 · s^−1
  k4*: 0.130 m^3 · kg^−1
Linear regression method
  k3*: 0.067 m^6 · mol^−1 · g^−1 · s^−1
  k4*: 0.350 m^3 · g^−1
